High-throughput results as filed in PubChem.
Yeast UUG start-1: alters start codon recognition fidelity in yeast | S. cerevisiae UUG-firefly luciferase reporter, luminescence/redox ratio | activity score, % at 18.7 µM | hit rate 0.13% among 350,000 | AID 602363;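 active means replicate mean at a twofold rise or more, about +100% in these data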;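 further: firefly luciferase made from a UUG start codon reports start codon fidelity; reporter light over untreated wells divided by growth signal over untreated wells; some hits fall short of that in this replicate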
C2C12 statin: suppressors of simvastatin-induced myotoxicity in C2C12 myotubes. ATP luminescence, 48 h; scaled: DMSO 0, geranylgeraniol control 100. rescue of ATP level, % at 7.49 µM. hit rate 0.78% among 330,000. AID 602340;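 active = mean ATP rescue above about 67%, or every replicate alone reaching that limit, limit read from the data, passing the limit was not always enough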;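 note: myotubes were challenged with 10 µM simvastatin during compound exposure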
Cneo AK release: causes C. neoformans cell lysis | lysis activity, % at 15 µM | hit rate 0.2% among 360,000 | adenylate kinase release luminescence, 4 h; normalised: neutral wells 0, clomiphene wells 100;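 active = mean lysis activity across replicates of at least 80%, whatever share of replicates individually reach that level; inactive = mean lysis activity below 80%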
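Assay system: Cryptococcus neoformans yeast cells / Dosing: single-point compound dose / Timing: 4 h at 37 °C static, read 1 h later / Measured by: luminescence of released adenylate kinase using an AK detection reagent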
N-glyco inh: blocks N-linked glycosylation in D54 reporter cells | D54 ERlucT glycosylation luciferase reporter, 24 h; percent of 100 nM tunicamycin response | reporter increase, % at 12.5 µM | hit rate 0.23% among 360,000;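 active = mean luciferase reporter signal, scaled so untreated is 0 and the glycosylation-blocking control 100, at or above a set limit in every replicate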;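 note: luciferase carries N-glycosylation sites so blocking glycosylation raises the light; 0% = median of neutral control wells and 100% = median of 100 nM tunicamycin wells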
miR122 inh: blocks miR-122 activity in Huh7 sensor cells. AID 602342. activation (reporter increase), % at 12.5 µM. hit rate 0.3% among 340,000. Huh7 miR-122 Renilla luciferase sensor, 48 h; neutral wells = 0, positive control = 100;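 active = mean replicate activation score at least 90 and every replicate individually at or above 90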;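 note: higher luciferase means less miR-122 activity so hits act as miR-122 inhibitors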
Yeast UUG start-2: modulators of start codon recognition fidelity in yeast. shares compounds with Yeast UUG start-1. S. cerevisiae UUG-start firefly luciferase, luminescence, 4 h; 100% means double the DMSO signal. activation, % at 38 µM. 540 tested, under 10 active;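 active = signal increase whose fitted curve reaches an absolute level of 40 at a concentration under 10 µM; inactive = activity opposite to the expected increase, or the rest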
* hit, by the source's call; i = inactive; x = not tested or not shown; [ ] = another dose, or the depositor's remark. In the library only some 1.2% were active in any assay of this set; here they are far more common.

Second line of a record: Yeast UUG start-2, C2C12 statin, miR122 inh, N-glyco inh, Cneo AK release, Yeast UUG start-1
- COCC(C)n1c(SCC(=O)c2cc(C)n(C)c2C)nc2ccccc2c1=O (stereo not drawn)
  -1, 0, -2, -1, 1, 1
- Cc1cc(C(=O)CSc2nnc(-c3ccccc3)n2C)c(C)n1C
  -7, 4, -8, 7, 3, -8
- COCC(C)n1c(C)cc(C(=O)CSc2nc3ccccc3c(=O)[nH]2)c1C (stereo not drawn)
  x, -18, -7, -2, -1, -6
- Cc1cc(C(=O)CSc2nnc(-c3ccncc3)n2-c2ccccc2)c(C)n1C
  7, x, x, -3, x, x
- Cn1c(SCC(=O)c2ccccc2)nnc1-c1cccnc1
  x, 8, 12, 3, -1, -18
- CCCn1c(C)cc(C(=O)CSc2nc3ccccc3c(=O)n2Cc2ccco2)c1C
  15, x, -3, -6, -1, -21
- NC(=O)CSc1nc2ccccc2c(=O)n1Cc1ccco1
  x, 20, -11, 2, 0, -13
- Cc1cc(C(=O)CSc2nnc(-c3cccnc3)n2-c2ccccc2F)c(C)n1C
  9, -2, -4, 0, -3, -5
- CN(C)Cc1cn(CC[C@H]2CC[C@H](NC(=O)Nc3ccc4c(c3)OCO4)[C@H](CO)O2)nn1
  x, 10, 4[16.7 µM], x, 5, -6
- O=C(NC1CCOC1)c1ccc(OC2CCN(CCc3ccccc3)CC2)cc1 (stereo not drawn)
  -2, 1, -2, -3, 3, 503*
- CN(C(=O)c1ccc(OC2CCN(CCc3ccccc3)CC2)cc1)C1CCOC1 (stereo not drawn)
  x, -3, -12, -4, -4, 10
- C[C@H](CO)N1C[C@H](C)[C@@H](CN(C)C(=O)c2ccncc2)OCCCC[C@H](C)Oc2ccc(NC(=O)C3CCCCC3)cc2C1=O
  x, 24, 10[16.7 µM], x, x, x
- C#CCOCCOCCOCCNc1nc(N2CCN(C(=O)[C@H](CCCN=C(N)N)n3cc(C(N)[C@H](C)CC)nn3)CC2)nc(N2CCN(C(=O)[C@H](CC(N)=O)n3cc(C(N)[C@@H](C)CC)nn3)CC2)n1 (stereo partly drawn)
  -3, -7, -3, 1, 0, 121*
- C#CCOCCOCCOCCNc1nc(N2CCN(C(=O)[C@H](CCC(=O)O)n3cc(C(N)Cc4ccc(O)cc4)nn3)CC2)nc(N2CCN(C(=O)[C@H](CCC(=O)O)n3cc(C(N)[C@H](C)CC)nn3)CC2)n1 (stereo partly drawn)
  10, 0, -2, -2, 2, 112*
- Cc1cc(C(=O)Nc2cccc3c2O[C@H](CN(C)C(=O)Nc2ccc(C(F)(F)F)cc2)[C@H](C)CN([C@H](C)CO)C3=O)n(C)n1
  x, -46, -3[16.7 µM], x, 42, 9
- CCc1ccc2c(c1)NC(=O)C2(C)Cc1ccccc1OC (stereo not drawn)
  x, 8, 1, -2, 1, -2
- O=c1[nH]c(/C=C\c2ccc(O)c(Cl)c2)nc(O)c1[N+](=O)[O-]
  2, 10, 0, 0, -3, 167*
- COc1ccc(C2CC(=O)C=C(O)C2)cc1 (stereo not drawn)
  x, x, x, 2, x, x
- COc1cc(C2CC(=O)C=C(O)C2)cc(OC)c1OC (stereo not drawn)
  0, -6, -3, -3, -3, 516*
- C=C(C)C(=O)Nc1ccc(OC(F)(F)C(F)F)c(NC(=O)C(=C)C)c1
  -6, -15, 1, -2, 2, 635*

A stretch from further up:
Second line of a record: Yeast UUG start-2, C2C12 statin, miR122 inh, N-glyco inh, Cneo AK release, Yeast UUG start-1
- COCC(C)n1c(SCC(=O)c2cc(C)n(C)c2C)nc2ccccc2c1=O (stereo not drawn)
  -1, 0, -2, -1, 1, 1
- Cc1cc(C(=O)CSc2nnc(-c3ccccc3)n2C)c(C)n1C
  -7, 4, -8, 7, 3, -8

(list continues)
Second line of a record: Yeast UUG start-2, C2C12 statin, miR122 inh, N-glyco inh, Cneo AK release, Yeast UUG start-1
- CC(=O)Nc1ccc(OC(F)(F)C(F)F)c(NC(C)=O)c1
  x, 19, 0, 5, 2, -1
- COc1ccccc1S(=O)(=O)N[C@@H]1CC[C@H](CCNC(=O)C2CCCC2)O[C@H]1CO
  x, -2, 0[16.7 µM], x, -3, -11
- Cc1ccc(S(=O)(=O)N[C@H]2CC[C@H](CCNC(=O)C3CCCCC3)O[C@H]2CO)cc1
  i, -15, 8[16.7 µM], x, -1, 146*
- Cc1ccc(S(=O)(=O)N[C@@H]2CC[C@@H](CCNC(=O)C3CCCCC3)O[C@@H]2CO)cc1
  x, -10, -16[16.7 µM], x, 0, -15
- CC(C)NC(=O)N[C@H]1CC[C@H](CCNC(=O)C2CCC2)O[C@H]1CO
  i, 0, 9[16.7 µM], x, 1, 136*
- COc1ccccc1S(=O)(=O)N[C@H]1CC[C@@H](CCNC(=O)C2CCCC2)O[C@@H]1CO
  i, -6, -17[16.7 µM], x, -9, 127*
- O=C(NCc1ccccn1)c1ccc(-c2ccccc2)cc1
  x, -6, -6, -2, x, x
- O=C(NCc1ccccn1)c1c(-c2ccccc2)sc2ccccc12
  4, 2, 4, 0, 4, 62*
- COc1ccccc1CN1C(=O)c2ccccc2[C@@]2(Cc3ccccc3N(CCN3CCOCC3)C2=O)[C@@H]1c1ccc(CO)cc1
  i, x, x, x, 20, 130*
- CN(C)CCCN1C(=O)[C@@]2(Cc3ccccc31)c1ccccc1C(=O)N(Cc1ccccc1Cl)[C@H]2c1ccc(CO)cc1
  i, x, x, x, -19, 202*
- O=C1c2ccccc2[C@@]2(Cc3ccccc3N(CCN3CCOCC3)C2=O)[C@H](c2ccc(CO)cc2)N1Cc1ccccc1Cl
  x, x, x, x, -2, 55
- CC(C)(C)Cc1c(-c2ccc(C#N)cc2)nc2ccc(Cl)cn12
  -6, 4, 2, 0, 0, 165*
- C[C@@H]1CN([C@@H](C)CO)C(=O)c2cc(C#CCN(C)C)cnc2O[C@@H]1CN(C)C(=O)Cc1ccccc1
  i, 0, 6[16.7 µM], x, 50, 176*
- C[C@@H]1CN([C@@H](C)CO)C(=O)c2cc(C#Cc3ccccc3F)cnc2O[C@@H]1CN(C)C(=O)Cc1cccnc1
  i, 12, x, x, -8, 153*
- C[C@@H]1CN([C@H](C)CO)C(=O)c2cc(C#Cc3ccccc3F)cnc2O[C@H]1CN(C)C(=O)Cc1cccnc1
  x, 10, x, x, 0, -7
- C[C@@H]1CN([C@@H](C)CO)C(=O)c2cc(C#CCN(C)C)cnc2O[C@H]1CN(C)C(=O)Cc1ccccc1
  x, -23, 11[16.7 µM], x, -2, x
- Cn1cnc(S(=O)(=O)N2CCCCC2c2cc(C(=O)Nc3cccc(C#N)c3)no2)c1 (stereo not drawn)
  x, -15, -3, 3, 0, -17
- Cc1ccccc1S(=O)(=O)N[C@@H]1CC[C@H](CCn2cc(-c3ccccc3)nn2)O[C@H]1CO
  x, 6, x, x, -1, 2
- O=C(c1ccccc1F)N1C[C@@H]2[C@H](c3ccccc31)[C@@H](CO)N2C(=O)C1CCCC1
  i, -23, -7[16.7 µM], x, -3, active
- O=C(Cc1ccccc1)N1C[C@H]2[C@@H](c3ccccc31)[C@@H](CO)N2C(=O)c1ccc(F)cc1
  i, -8, 8[16.7 µM], x, -3, 109*
- O=C(c1ccccc1F)N1C[C@H]2[C@@H](c3ccccc31)[C@H](CO)N2C(=O)C1CCCC1
  x, -20, 21[16.7 µM], x, -2, 3
- O=C(c1cccnc1)N1C[C@@H]2[C@H](c3ccccc31)[C@H](CO)N2C(=O)C1CCCCC1
  x, -9, 27[16.7 µM], x, 4, -10

Taken from above.
Under miR122 inh, O=C(NCc1ccccn1)c1ccc(-c2ccccc2)cc1 is listed with -6
Under miR122 inh, C[C@@H]1CN([C@@H](C)CO)C(=O)c2cc(C#CCN(C)C)cnc2O[C@H]1CN(C)C(=O)Cc1ccccc1 is listed with 11[16.7 µM]
Under C2C12 statin, C[C@@H]1CN([C@H](C)CO)C(=O)c2cc(C#Cc3ccccc3F)cnc2O[C@H]1CN(C)C(=O)Cc1cccnc1 is listed with 10
Under Cneo AK release, C[C@@H]1CN([C@@H](C)CO)C(=O)c2cc(C#Cc3ccccc3F)cnc2O[C@@H]1CN(C)C(=O)Cc1cccnc1 is listed with -8
Under miR122 inh, CC(=O)Nc1ccc(OC(F)(F)C(F)F)c(NC(C)=O)c1 is listed with 0
